ERp5 inh: inhibitors of human ERp5 | Q15084 | ERp5 insulin aggregation, absorbance 650 nm, 90 min | inhibition, % at 9.99 µM | 350,000 compounds, 0.05% hits | AID 651711;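 active means mean replicate inhibition above about 25%, with every replicate also reaching it, limit read from the data, passing the limit was not always enough; inconclusive means only one of those two criteria met; inactive means neither criterion met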
S100A4 MyoIIA: blocks human S100A4 binding to myosin IIA peptide. P26447. S100A4/TAMRA-MyoIIA peptide fluorescence polarization. inhibition, % at 10.7 µM. 360,000 compounds, 0.14% hits. AID 652163;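 active means mean inhibition of at least 70% across replicates, with every replicate also reaching that level; inconclusive means mean inhibition reaches 70% but some replicates fall short; inactive means mean inhibition below 70%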
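incubation = readout 5 min after mixing, signal stable up to 60 min | system = S100A4 monomer protein | buffer or medium = HEPES pH 7.2 with CaCl2, KCl, NaCl, DTT, Triton | benchmarks = neutral control DMSO, positive control TFP | also added = fluorescent myosin IIA peptide, 5 nM | compound dosing = one concentration per compound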
PDI turbidity: blocks human protein disulfide isomerase activity; inhibition, % at 10 µM; P07237; 350,000 compounds, 0.052% hits; AID 588391; PDI insulin aggregation turbidity, A650, 90 min;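 active means mean inhibition across replicates of 30% or more, whatever share of single replicates reach that level; inconclusive means mean inhibition below 30% while every single replicate reaches 30%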
Yeast UUG start: modulators of yeast start codon fidelity, primary screen, whole organism, S. cerevisiae, single point, plate reader | AID 602363, 2012 | actives 0.13% (n = 350,000) | activity score, % at 18.7 µM | S. cerevisiae UUG-firefly luciferase reporter, luminescence/redox ratio;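 active means replicate mean at a twofold rise or more, about +100% in these data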;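 further: firefly luciferase made from a UUG start codon reports start codon fidelity; reporter light over untreated wells divided by growth signal over untreated wells; some hits fall short of that in this replicate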
SIRT5 block: inhibitors of human sirtuin-5 desuccinylase | 330,000 compounds, 1.1% hits | inhibition, % at 15 µM | Q9NXA8 | Purified SirT5, succinyl-peptide AMC, trypsin-coupled fluorescence; in the data active means inhibition above about 15%; inconclusive means no clear call, values can overlap the other calls
FGF22 binding: shifts melting point of recombinant human FGF22; Q9HCT0; recombinant FGF22 thermal shift, SYPRO orange fluorescence; percent of sucrose octasulfate shift, DMSO zero; activity (Tm shift, normalised), % at 9.99 µM; 340,000 compounds, 1.5% hits; AID 651658;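 active means mean Tm shift, scaled 0 neutral to 100 positive control, at about 1.3% or above, every replicate too, limit read from the data; inconclusive means no clear call, values can overlap the other calls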
Numbers without * were called inactive; ? = inconclusive; nt = not tested or not shown; ! = a repeat was not active. Sampled rows, rich in hits. Any-hit rate of the full collection: about 2.2%.

Short keys – A = ERp5 inh; B = S100A4 MyoIIA; C = PDI turbidity; D = Yeast UUG start; E = SIRT5 block; F = FGF22 binding
1: C[C@H](O)C#Cc1cnc2c(c1)C(=O)N([C@@H](C)CO)C[C@@H](C)[C@H](CN(C)C(=O)c1ccc(F)cc1)O2
  A = 1; B = 5; C = nt; D = 17; E = -1; F = 0

2: CN1CCN(C(=O)/C(=C/c2ccc(F)cc2)c2ccsc2)CC1
  A = 9; B = 2; C = 1; D = nt; E = -7; F = 43*

3: CN1CCN(C(=O)/C(=C/c2ccccc2)c2ccccc2)CC1
  A = nt; B = nt; C = 0; D = -17; E = nt; F = nt

4: Cc1nc2cc(C(=O)N3CCc4ccccc43)ccc2n1-c1ccc(F)c(F)c1
  A = 0; B = 2; C = 3; D = 1; E = 16*; F = 0

5: COC(CNC(=O)c1ccc2c(c1)nc(C)n2-c1ccc(F)c(F)c1)OC
  A = nt; B = nt; C = -2; D = -6; E = nt; F = nt

6: N#Cc1c(F)cccc1N1CCC(C#N)CC1
  A = 2; B = 1; C = -6; D = nt; E = -10; F = 0

7: N#Cc1cccc(C#N)c1N1CCC(C#N)CC1
  A = 1; B = 4; C = 4; D = nt; E = 24*; F = 42

8: C#CCSc1cc(C(F)(F)F)nc(-c2ccccn2)n1
  A = -1; B = -5; C = 5; D = nt; E = 20*; F = 0

9: CC(=O)N[C@H]1C[C@@H]2O[C@@H](CO)CC[C@@H]2O[C@@H]1CCc1ccc(-c2ccc(F)cc2)cc1
  A = -6; B = -1; C = nt; D = nt; E = 2; F = nt

10: CC(C)Cc1nc2sc3c(=O)n(N)cnc3c2c2c1COC(C)(C)C2
  A = 1; B = 1; C = -1; D = -22; E = -2; F = 0

11: CCCCc1nc2sc3c(=O)n(N)cnc3c2c2c1CCC2
  A = 1; B = 4; C = 6; D = -11; E = 6; F = 43*

12: CCCNC(=O)N(C)C[C@H]1Oc2cc(C#CC(C)C)ccc2S(=O)(=O)N([C@@H](C)CO)C[C@@H]1C
  A = nt; B = nt; C = nt; D = 11; E = nt; F = 0

13: O=C(/C=C/c1ccc(-c2ccc(F)cc2)o1)N1CCCC1
  A = 2; B = -6; C = -5; D = nt; E = 21*; F = 0

14: CC(OC(=O)C1CC1)C(=O)Nc1cc(C(F)(F)F)ccc1Cl (stereo unspecified)
  A = 6; B = -5; C = -5; D = -8; E = -1; F = 44*

15: CC1(C)CC(=O)C(CC(=O)Nc2cc(C(F)(F)F)ccc2Cl)C(=O)C1
  A = 8; B = 1; C = 7; D = nt; E = -3; F = 44*

16: O=C(C[C@H]1C=C[C@H](NS(=O)(=O)c2ccccc2)[C@@H](CO)O1)N1CCc2ccccc2C1
  A = 0; B = -8; C = nt; D = 8; E = 1; F = 0

17: CCCC(=O)Nc1ccc2c(c1)C(=O)N(C)C[C@@H](OC)[C@H](C)CN(C(=O)C1CCCC1)[C@@H](C)CO2
  A = -5; B = 1; C = nt; D = nt; E = -4; F = 0

18: COc1cccc(N=C(N)N=C(N)N)c1
  A = 2; B = -3; C = 0; D = -12; E = 1; F = 0

19: NC(N)=NC(N)=Nc1ccc2ccccc2c1
  A = 3; B = -9; C = 0; D = -25; E = 2; F = 44*

20: C[C@@H]1CN([C@@H](C)CO)C(=O)c2cc(NC(=O)CCCN(C)C)ccc2O[C@@H](C)CCCCO[C@@H]1CN(C)S(=O)(=O)c1ccc(F)cc1
  A = 1; B = 2; C = nt; D = 18; E = -1; F = 0

21: CC(=O)Oc1ccc2oc(=O)c3c(c2c1)CCCN3C(=O)CN1CCOCC1
  A = 11; B = -5; C = -2; D = nt; E = 0; F = 43*

22: O=C(C[C@H]1C=C[C@H](NC(=O)NC2CCCCC2)[C@H](CO)O1)NCc1ccc(F)cc1
  A = -1; B = -1; C = nt; D = -3; E = 0; F = 0

23: CN(CCCn1ccc(NC(=O)OCc2ccccc2)nc1=O)Cc1ccco1
  A = -6; B = -4; C = 5; D = -7; E = 25*; F = 0

24: C[C@@H]1CN([C@H](C)CO)C(=O)CCCn2cc(nn2)CO[C@H]1CN(C)Cc1ccc(C(=O)O)cc1
  A = -2; B = -12; C = nt; D = nt; E = -7; F = 0

25: CN(CC(=O)Nc1ccc(F)cc1)CC(=O)NC1CCCCC1
  A = 25*; B = 1; C = 11; D = 9; E = 0; F = 0

26: CN(CC(=O)Nc1ccccc1)CC(=O)Nc1ccc(F)cc1
  A = 1; B = -2; C = -3; D = -21; E = -4; F = 0

27: C[C@@H]1CN([C@H](C)CO)C(=O)c2cc(C#Cc3ccccc3)cnc2O[C@@H]1CN(C)C(=O)c1ccccc1F
  A = -2; B = 74*; C = nt; D = 19; E = 1; F = 0

28: CC(C)C#Cc1cnc2c(c1)C(=O)N([C@@H](C)CO)C[C@@H](C)[C@H](CN(C)C(=O)c1ccccc1F)O2
  A = 32*; B = 7; C = nt; D = 13; E = 5; F = 0

29: CC(=O)N(C)C[C@@H]1Oc2ncc(C#Cc3cccc(F)c3)cc2C(=O)N([C@H](C)CO)C[C@H]1C
  A = 5; B = 20; C = nt; D = 18; E = 21*; F = 0

30: CC(C)C#Cc1cnc2c(c1)C(=O)N([C@@H](C)CO)C[C@H](C)[C@@H](CN(C)C(=O)c1ccccc1F)O2
  A = 1; B = 3; C = nt; D = 14; E = -2; F = 0

31: Cc1noc(C)c1NC(=O)N(C)C[C@@H]1Oc2ncc(Br)cc2C(=O)N([C@@H](C)CO)C[C@H]1C
  A = 2; B = -8; C = 1; D = -1; E = 30*!; F = 0

32: CN(C)C(=O)C[C@H]1C=C[C@@H](NC(=O)NC2CCCCC2)[C@@H](CO)O1
  A = 4; B = -3; C = nt; D = -12; E = -3; F = 0

33: C[C@H]1CN([C@@H](C)CO)C(=O)c2cc(Br)cnc2O[C@H]1CN(C)C(=O)c1ccccc1F
  A = -6; B = 139*; C = nt; D = 25; E = 5; F = 0

34: CC(C)C#Cc1cnc2c(c1)C(=O)N([C@H](C)CO)C[C@H](C)[C@@H](CN(C)C(=O)CN1CCOCC1)O2
  A = -9; B = -16; C = nt; D = 3; E = 39*; F = 0

35: Cc1ccc(S(=O)(=O)Nc2cccc3c2O[C@H](CN(C)S(=O)(=O)c2ccc(C)cc2)[C@H](C)CN([C@H](C)CO)C3=O)cc1
  A = 2; B = -5; C = nt; D = -1; E = 4; F = 0

36: COCC(=O)Nc1ccc2c(c1)C(=O)N(C)C[C@H](OC)[C@@H](C)CN(Cc1cc(F)ccc1F)[C@H](C)CO2
  A = -2; B = -6; C = nt; D = nt; E = 1; F = 0

37: CCN(CC)N=Nc1ccc(S(N)(=O)=O)cc1
  A = 4; B = -7; C = 16; D = nt; E = 18*; F = 0

38: CN(C)N=Nc1ccc(S(N)(=O)=O)cc1
  A = 5; B = -8; C = 10; D = -30; E = -1; F = 0

39: Cc1ccccc1CNC(=O)c1ccccc1NS(C)(=O)=O
  A = -2; B = -8; C = -5; D = nt; E = 27*; F = 0

40: OC[C@H]1Nc2ccc(C#Cc3ccc(F)cc3)cc2[C@@H]2[C@H]1CCN2Cc1nccs1
  A = nt; B = nt; C = nt; D = -16; E = nt; F = nt

41: CCC(Sc1nc2ncnc(N)c2[nH]1)C(=O)O (stereo unspecified)
  A = 5; B = -2; C = 5; D = -21; E = 17*; F = 0

42: Cc1nc2nc(SCC(=O)O)nn2c(C)c1Cc1ccccc1Cl
  A = 0; B = 1; C = -1; D = nt; E = 1; F = 43*

43: O=C(CSc1nc2ccccc2o1)Nc1nc2ccccc2s1
  A = nt; B = nt; C = -3; D = -9; E = nt; F = nt

44: O=C(CSc1nc2ccccc2o1)Nc1nccs1
  A = -3; B = 2; C = -4; D = nt; E = -3; F = 2.3*

45: O=C(N/N=C/c1cccc([N+](=O)[O-])c1)c1cnccn1
  A = nt; B = nt; C = ?; D = -6; E = nt; F = nt

46: O=C(N/N=C/c1cc([N+](=O)[O-])ccc1Cl)c1cnccn1
  A = -1; B = 0; C = 13; D = -11; E = 4; F = 43*

47: COc1ccc2c3c([nH]c2c1)[C@H](CO)N(C(=O)Nc1ccc(F)cc1)CC31CN(C(=O)c2ccccc2F)C1
  A = -2; B = 0; C = nt; D = nt; E = 2; F = nt

Reformatted as labelled records: entries from further up
[5] COC(CNC(=O)c1ccc2c(c1)nc(C)n2-c1ccc(F)c(F)c1)OC
  ERp5 inh: nt	S100A4 MyoIIA: nt	PDI turbidity: -2	Yeast UUG start: -6	SIRT5 block: nt	FGF22 binding: nt

[35] Cc1ccc(S(=O)(=O)Nc2cccc3c2O[C@H](CN(C)S(=O)(=O)c2ccc(C)cc2)[C@H](C)CN([C@H](C)CO)C3=O)cc1
  ERp5 inh: 2	S100A4 MyoIIA: -5	PDI turbidity: nt	Yeast UUG start: -1	SIRT5 block: 4	FGF22 binding: 0

[31] Cc1noc(C)c1NC(=O)N(C)C[C@@H]1Oc2ncc(Br)cc2C(=O)N([C@@H](C)CO)C[C@H]1C
  ERp5 inh: 2	S100A4 MyoIIA: -8	PDI turbidity: 1	Yeast UUG start: -1	SIRT5 block: 30*!	FGF22 binding: 0
